Reference: ChEMBL document CHEMBL1132009, “Inhibition of MMP-1 and MMP-13 with phosphinic acids that exploit binding in the S2 pocket” (Bioorg Med Chem Lett, 1999)

By UniProt entry, the sequences of proteins in these tests, tags left out. Where a name states a change or a piece, a line headed by the entry shows the natural chain unless it says otherwise.
UniProt P08254: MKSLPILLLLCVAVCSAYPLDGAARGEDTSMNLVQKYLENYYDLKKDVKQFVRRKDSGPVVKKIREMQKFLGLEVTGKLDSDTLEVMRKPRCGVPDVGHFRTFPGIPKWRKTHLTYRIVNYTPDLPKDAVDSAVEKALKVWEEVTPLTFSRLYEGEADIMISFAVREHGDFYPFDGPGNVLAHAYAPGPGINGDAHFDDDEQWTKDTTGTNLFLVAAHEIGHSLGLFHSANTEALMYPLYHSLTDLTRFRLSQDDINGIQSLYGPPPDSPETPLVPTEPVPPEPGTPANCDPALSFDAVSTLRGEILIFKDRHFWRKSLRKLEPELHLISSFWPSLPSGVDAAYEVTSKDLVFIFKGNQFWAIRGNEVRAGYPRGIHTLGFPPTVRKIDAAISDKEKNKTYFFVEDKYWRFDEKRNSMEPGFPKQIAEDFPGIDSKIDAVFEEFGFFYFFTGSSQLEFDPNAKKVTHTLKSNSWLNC

Molecular target: Stromelysin-1 (Homo sapiens, UniProt P08254)
Experiment: Inhibition of recombinant matrix metalloprotease-3 (MMP-3)

Ki: 1.4 nM
SMILES: CC(C)C[C@@H](NC(=O)[C@H](CCc1ccccc1)CP(=O)(O)CCCCN1C(=O)c2ccccc2C1=O)C(=O)Nc1ccccc1
